Results from patent US11590197B2.

Tests used:
MOLT-4 cells = assay: Cell viability / proliferation assay (ATPlite), MOLT-4; type: cell-based, human; conditions: 48 hrs; range in words
H929 and L363 cells = assay: MTS assay, LCL161-sensitive multiple myeloma cell lines; conditions: H929 and L363, 48 hr, 20 μM; result in words
BxPC3 and PANC-1 cells = assay: Co-treatment with gemcitabine (GEM) and IAP inhibitors, BxPC3 and PANC-1; conditions: GEM 24 h, then GEM + 15 μM IAP inhibitor 24 h, result in words

Question: CN[C@@H](C)C(=O)N[C@@H](CNC(=O)c1ccc(S(=O)(=O)F)cc1)C(=O)N1CCC[C@@H]1c1cncc(Cc2cccc(F)c2)n1 was tested. Which “IC50, cell viability of MOLT-4” value (MOLT-4 cells) did it give?
Answer: single digit micromolar range

Question: What about the “activity in LCL161-sensitive MM cell lines” value (H929 and L363 cells) of the same compound?
Answer: approximately equipotent

Question: What about the “effect in combination with gemcitabine, BxPC3 and PANC-1 (pancreatic cancer cell lines, FIG. 10E)” value (BxPC3 and PANC-1 cells) of the same compound?
Answer: significantly sensitize

Question: What about the “effect in combination with gemcitabine, BxPC3 and PANC-1 (pancreatic cancer cell lines, FIG. 10E)” value (BxPC3 and PANC-1 cells; listed as compound 34) of the same compound?
Answer: significant synergism
